Data on one substance can be found in US20090054326A1, “FORMULATIONS FOR ENHANCED MUCOSAL DELIVERY OF PYY” (NASTECH PHARMACEUTICAL COMPANY INC., priority 2005, published 2009).

In data set [1] the test system is normal, human-derived tracheal/bronchial epithelial cells (EpiAirway Tissue Model). Put plainly: Cell viability, MTT assay in EpiAirway tissue model. Format: cell-based. Particulars: MTT after 1-h incubation. The protocol:
(§1) Samples were evaluated in an in vitro tissue model. […] Inserts were feed for each day of recovery.
Cell viability was assessed using the MTT assay (MTT-100, MatTek kit). Thawed and diluted MTT concentrate was pipetted (300 μl) into a 24-well plate. Tissue inserts were gently dried, placed into the plate wells, and incubated at 37° C. for 3 hours. After incubation, each insert was removed from the plate, blotted gently, and placed into a 24-well extraction plate. The cell culture inserts were then immersed in 2.0 ml of the extractant solution per well (to completely cover the sample). The extraction plate was covered and sealed to reduce evaporation of extractant. After an overnight incubation at room temperature in the dark, the liquid within each insert was decanted back into the well from which it was taken, and the inserts discarded. The extractant solution (200 μl in at least duplicate) was pipetted into a 96-well microtiter plate, along with extract blanks. The optical density of the samples was measured at 550 nm on a plate reader.
On the technique in general: Tetrazolium dyes change colour on reduction, which living cells bring about.

For data set [2] the test system is unchanged. As to the kind of experiment: Cytotoxicity, LDH assay in EpiAirway tissue model. In kind it is cell-based. Conditions: after 1-h incubation. On the procedure: as §1
The amount of cell death (cytotoxicity) was assayed by measuring the loss of lactate dehydrogenase (LDH) from the cells using a CytoTox 96 Cytoxicity Assay Kit (Promega Corp., Madison, Wis.).
LDH analysis of the apical media was evaluated. The appropriate amount of media was added to the apical surface in order to total 300 uL, taking into consideration the initial sample loading volume. The inserts were shaken for 5 minutes, and then 150 uL of the apical media was removed and dispensed into eppendorf tubes and centrifuged at 10000 rpm for 3 minutes. A volume of 2 uL of the supernatant was removed and added to a 96 well plate. A volume of 48 uL of media was used to dilute the supernatant to make a 25× dilution. For LDH analysis of the basolateral media, 50 uL of sample was loaded into a 96-well assay plate. Fresh, cell-free culture medium was used as a blank. Fifty microliters of substrate solution was added to each well and the plates incubated for 30 minutes at room temperature in the dark. Following incubation, 50 μl of stop solution was added to each well and the plates read on an optical density plate reader at 490 nm. All samples and the negative and media controls had relatively low cytotoxicity by basolateral LDH assay, i.e., no more than 20% compared to the media control. […]

For the substance Triton X, the “cell viability” value in data set [1] was “substantially decreased cellular viability”. Moreover, the “cytotoxicity by LDH assay” value in data set [2] is on record as “relative high cytotoxicity”.
